Experimental data from ChEMBL document CHEMBL3994596, “Structural Basis for Potency and Promiscuity in Poly(ADP-ribose) Polymerase (PARP) and Tankyrase Inhibitors” (J Med Chem, 2017).

Protein sequences, listed by entry. Tags and fused reporters are not part of them. Lines headed by an entry give the natural chain unless they say otherwise; changes in a name come on top.
UniProt P09874, whole entry: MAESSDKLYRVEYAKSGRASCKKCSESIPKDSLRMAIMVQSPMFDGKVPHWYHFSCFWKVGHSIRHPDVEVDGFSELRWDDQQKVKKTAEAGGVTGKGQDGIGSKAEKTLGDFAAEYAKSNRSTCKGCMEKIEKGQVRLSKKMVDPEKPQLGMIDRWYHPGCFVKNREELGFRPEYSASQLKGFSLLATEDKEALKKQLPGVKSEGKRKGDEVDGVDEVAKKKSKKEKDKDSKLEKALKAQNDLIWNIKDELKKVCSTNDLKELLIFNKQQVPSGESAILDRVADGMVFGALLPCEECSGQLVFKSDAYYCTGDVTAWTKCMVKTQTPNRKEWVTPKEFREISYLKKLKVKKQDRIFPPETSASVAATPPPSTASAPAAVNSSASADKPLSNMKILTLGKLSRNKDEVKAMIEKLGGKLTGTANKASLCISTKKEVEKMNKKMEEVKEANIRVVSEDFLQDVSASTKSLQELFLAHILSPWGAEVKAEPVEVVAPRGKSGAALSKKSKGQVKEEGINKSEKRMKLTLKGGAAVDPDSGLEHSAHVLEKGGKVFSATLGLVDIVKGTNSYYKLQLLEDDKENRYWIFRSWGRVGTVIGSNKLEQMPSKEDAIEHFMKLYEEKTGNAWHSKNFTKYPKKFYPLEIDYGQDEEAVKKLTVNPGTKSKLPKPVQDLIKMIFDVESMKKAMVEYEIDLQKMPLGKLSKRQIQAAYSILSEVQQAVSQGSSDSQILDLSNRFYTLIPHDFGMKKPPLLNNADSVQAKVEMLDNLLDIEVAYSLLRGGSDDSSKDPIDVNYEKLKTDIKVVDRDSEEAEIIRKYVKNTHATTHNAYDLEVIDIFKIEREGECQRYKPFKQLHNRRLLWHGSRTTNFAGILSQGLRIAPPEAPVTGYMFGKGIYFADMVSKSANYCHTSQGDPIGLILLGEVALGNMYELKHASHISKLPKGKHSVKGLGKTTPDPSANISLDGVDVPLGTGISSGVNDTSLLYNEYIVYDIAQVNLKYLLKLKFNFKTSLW
UniProt Q9UKK3: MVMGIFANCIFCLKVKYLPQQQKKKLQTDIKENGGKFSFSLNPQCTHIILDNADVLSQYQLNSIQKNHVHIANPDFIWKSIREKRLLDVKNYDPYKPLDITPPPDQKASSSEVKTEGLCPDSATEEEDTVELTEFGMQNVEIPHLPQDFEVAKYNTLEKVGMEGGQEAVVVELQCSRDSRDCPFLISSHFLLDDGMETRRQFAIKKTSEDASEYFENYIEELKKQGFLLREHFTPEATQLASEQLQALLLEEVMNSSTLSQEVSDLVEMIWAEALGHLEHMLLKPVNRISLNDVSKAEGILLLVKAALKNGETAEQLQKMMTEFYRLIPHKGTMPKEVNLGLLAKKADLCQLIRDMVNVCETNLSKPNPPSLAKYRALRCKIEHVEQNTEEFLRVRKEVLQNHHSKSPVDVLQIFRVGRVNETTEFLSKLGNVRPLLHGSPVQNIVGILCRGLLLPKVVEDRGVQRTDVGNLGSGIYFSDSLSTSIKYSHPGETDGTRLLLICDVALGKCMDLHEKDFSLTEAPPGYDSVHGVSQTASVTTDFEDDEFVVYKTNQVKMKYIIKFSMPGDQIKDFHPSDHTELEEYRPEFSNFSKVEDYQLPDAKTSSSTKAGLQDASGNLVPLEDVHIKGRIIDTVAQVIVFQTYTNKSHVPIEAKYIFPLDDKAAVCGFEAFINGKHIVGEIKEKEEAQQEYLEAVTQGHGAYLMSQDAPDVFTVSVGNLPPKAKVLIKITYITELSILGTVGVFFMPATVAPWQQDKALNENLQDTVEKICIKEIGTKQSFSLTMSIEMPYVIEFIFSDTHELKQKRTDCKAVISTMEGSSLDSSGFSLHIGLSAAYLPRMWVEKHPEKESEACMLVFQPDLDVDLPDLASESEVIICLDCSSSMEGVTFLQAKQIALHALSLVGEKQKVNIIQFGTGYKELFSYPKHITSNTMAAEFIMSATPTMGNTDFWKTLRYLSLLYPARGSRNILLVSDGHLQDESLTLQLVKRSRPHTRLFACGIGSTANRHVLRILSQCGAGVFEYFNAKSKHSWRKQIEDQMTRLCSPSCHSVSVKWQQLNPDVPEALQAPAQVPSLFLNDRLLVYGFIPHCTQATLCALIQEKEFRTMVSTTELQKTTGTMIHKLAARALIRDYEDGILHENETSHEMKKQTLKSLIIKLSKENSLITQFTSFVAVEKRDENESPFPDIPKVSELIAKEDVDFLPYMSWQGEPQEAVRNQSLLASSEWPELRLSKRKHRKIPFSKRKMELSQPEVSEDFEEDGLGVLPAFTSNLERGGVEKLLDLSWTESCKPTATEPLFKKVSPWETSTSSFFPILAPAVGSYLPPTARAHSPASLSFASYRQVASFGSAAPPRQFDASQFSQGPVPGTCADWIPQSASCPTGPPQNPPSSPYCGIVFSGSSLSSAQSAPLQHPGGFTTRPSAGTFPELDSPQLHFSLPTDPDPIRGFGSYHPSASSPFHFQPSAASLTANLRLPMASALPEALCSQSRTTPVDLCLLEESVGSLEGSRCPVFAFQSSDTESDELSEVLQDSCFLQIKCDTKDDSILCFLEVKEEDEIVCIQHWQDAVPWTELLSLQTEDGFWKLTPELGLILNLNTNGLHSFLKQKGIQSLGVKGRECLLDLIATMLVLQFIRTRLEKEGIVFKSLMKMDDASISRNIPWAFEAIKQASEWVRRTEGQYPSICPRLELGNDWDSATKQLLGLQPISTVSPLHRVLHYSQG

Columns and labels:
[1] = molecular target: Poly [ADP-ribose] polymerase 1 (Homo sapiens, UniProt P09874)
[2] = molecular target: T1, Protein mono-ADP-ribosyltransferase PARP10 (Homo sapiens) (UniProt Q53GL7)
T1 sequence (whole entry): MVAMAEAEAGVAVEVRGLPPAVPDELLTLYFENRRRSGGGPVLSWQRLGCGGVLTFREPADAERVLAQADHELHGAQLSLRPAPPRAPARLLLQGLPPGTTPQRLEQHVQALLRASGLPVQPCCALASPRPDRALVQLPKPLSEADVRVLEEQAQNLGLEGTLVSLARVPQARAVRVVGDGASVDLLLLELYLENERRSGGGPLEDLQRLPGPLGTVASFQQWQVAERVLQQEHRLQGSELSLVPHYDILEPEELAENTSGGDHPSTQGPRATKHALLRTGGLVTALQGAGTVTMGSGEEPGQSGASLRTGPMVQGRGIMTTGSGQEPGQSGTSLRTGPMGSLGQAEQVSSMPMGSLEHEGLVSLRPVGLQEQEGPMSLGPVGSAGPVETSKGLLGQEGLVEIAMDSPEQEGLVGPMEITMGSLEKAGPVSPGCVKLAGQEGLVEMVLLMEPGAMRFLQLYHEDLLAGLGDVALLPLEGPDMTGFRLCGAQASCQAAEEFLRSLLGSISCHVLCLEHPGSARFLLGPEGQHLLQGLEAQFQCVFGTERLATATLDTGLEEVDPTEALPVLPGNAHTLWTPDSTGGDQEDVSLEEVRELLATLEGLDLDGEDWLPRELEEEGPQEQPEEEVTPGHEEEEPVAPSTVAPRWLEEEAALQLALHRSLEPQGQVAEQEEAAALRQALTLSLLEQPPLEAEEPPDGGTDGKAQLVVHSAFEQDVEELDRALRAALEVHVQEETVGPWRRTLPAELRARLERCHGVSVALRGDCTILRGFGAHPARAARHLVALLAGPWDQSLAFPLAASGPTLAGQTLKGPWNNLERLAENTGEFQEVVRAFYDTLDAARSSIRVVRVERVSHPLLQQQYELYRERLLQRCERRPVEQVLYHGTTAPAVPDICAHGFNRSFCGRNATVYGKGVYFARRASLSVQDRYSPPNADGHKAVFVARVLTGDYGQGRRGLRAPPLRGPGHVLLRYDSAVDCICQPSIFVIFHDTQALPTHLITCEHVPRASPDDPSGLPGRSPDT

[3] = molecular target: T2, Poly [ADP-ribose] polymerase tankyrase-1 (Homo sapiens, UniProt O95271)
T2 sequence (O95271 whole entry): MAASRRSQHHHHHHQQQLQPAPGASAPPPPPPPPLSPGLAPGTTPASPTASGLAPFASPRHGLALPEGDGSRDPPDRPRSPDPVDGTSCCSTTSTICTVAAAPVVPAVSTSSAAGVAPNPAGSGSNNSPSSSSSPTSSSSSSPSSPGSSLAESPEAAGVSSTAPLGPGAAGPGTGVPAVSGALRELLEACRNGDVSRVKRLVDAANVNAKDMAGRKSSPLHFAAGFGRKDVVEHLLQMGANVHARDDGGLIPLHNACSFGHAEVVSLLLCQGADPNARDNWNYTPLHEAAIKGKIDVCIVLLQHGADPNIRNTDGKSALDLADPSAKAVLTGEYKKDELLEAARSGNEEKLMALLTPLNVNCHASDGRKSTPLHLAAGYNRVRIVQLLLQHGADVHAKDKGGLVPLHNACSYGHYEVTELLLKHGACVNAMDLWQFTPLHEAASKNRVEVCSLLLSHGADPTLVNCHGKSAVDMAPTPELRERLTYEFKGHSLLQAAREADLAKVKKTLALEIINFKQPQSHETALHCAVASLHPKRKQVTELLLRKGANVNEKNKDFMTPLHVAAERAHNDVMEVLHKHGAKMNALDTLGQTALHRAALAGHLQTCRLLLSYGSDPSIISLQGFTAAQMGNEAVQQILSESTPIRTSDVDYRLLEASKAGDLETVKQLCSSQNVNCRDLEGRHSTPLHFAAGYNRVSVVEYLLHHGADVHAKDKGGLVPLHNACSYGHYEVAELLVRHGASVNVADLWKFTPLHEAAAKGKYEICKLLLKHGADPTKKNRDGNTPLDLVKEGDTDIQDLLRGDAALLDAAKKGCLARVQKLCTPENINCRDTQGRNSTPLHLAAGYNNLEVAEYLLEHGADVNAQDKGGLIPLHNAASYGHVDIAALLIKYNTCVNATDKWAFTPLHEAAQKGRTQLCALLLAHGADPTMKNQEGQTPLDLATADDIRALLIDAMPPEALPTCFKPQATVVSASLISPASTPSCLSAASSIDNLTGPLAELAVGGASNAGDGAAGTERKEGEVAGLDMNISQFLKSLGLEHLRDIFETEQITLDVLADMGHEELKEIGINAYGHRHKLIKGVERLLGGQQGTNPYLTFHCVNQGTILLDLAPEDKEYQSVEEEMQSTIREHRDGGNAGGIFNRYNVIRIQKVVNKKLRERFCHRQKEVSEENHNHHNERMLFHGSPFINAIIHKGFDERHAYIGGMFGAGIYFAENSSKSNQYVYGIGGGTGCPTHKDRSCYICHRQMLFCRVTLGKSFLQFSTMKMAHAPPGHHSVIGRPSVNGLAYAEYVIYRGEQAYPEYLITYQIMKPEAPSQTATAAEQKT

[4] = molecular target: T3, Protein mono-ADP-ribosyltransferase PARP3 (Homo sapiens) (UniProt Q9Y6F1)
T3 sequence (whole entry): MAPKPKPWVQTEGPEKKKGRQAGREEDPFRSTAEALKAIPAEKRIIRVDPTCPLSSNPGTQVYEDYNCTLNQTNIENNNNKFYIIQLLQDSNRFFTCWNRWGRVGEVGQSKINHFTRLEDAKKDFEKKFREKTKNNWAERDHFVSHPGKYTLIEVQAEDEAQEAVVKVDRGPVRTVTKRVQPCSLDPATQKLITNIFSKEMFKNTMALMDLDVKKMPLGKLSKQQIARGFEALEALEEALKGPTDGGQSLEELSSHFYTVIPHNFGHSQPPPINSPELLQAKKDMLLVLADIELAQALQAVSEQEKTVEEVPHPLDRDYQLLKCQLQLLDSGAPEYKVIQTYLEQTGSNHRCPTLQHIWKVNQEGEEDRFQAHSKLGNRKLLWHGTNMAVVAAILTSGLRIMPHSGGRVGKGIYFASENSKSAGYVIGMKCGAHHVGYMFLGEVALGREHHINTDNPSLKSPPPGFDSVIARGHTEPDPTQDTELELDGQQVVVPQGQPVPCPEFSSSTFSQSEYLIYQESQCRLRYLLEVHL

[5] = molecular target: T2, Poly [ADP-ribose] polymerase tankyrase-1; remark: listed apart in the source
[6] = molecular target: Protein mono-ADP-ribosyltransferase PARP4 (Homo sapiens, UniProt Q9UKK3)

| SMILES | IC50 [1] [nM] | pIC50 [2] | IC50 [3] [nM] | pIC50 [4] | IC50 [5] [nM] | IC50 [6] [nM] |
| --- | --- | --- | --- | --- | --- | --- |
| Cc1cc(N2C[C@@H](C)N[C@@H](C)C2)ncc1-c1ccc(-c2nc3c(ccn3C)c(=O)[nH]2)cc1 | 1600 | inactive | 100 | inactive |  |  |
| NC(=O)c1cccc2cn(-c3ccc([C@@H]4CCCNC4)cc3)nc12 [NIRAPARIB] |  |  |  |  | 2350 | 446 |

The source made the active and inactive calls. The calls are words filed in the database; no cut-off is given here.
